# Experimental data as given in PubChem BioAssay AID1515 (The Scripps Research Institute Molecular Screening Center, 2009).
# The chains behind the UniProt entries cited, without tags or fusion partners.
# UniProt O75884, whole entry: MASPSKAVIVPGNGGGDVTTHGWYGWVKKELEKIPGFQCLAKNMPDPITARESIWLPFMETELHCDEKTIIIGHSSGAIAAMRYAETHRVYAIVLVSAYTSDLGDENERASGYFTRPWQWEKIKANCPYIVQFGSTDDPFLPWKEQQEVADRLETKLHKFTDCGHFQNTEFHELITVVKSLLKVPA
# The list shows a part of the results, in another mix than the full data. Active and inactive are the calls of the source.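 How the source made its calls: active means inhibition above the campaign mean of all tested compounds plus 3 SD (cut at about 14% in these data); inactive means the rest.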
# Molecular target: Serine hydrolase RBBP9 (Homo sapiens) (UniProt O75884)
# Test: blockers of RBBP9 serine hydrolase labeling – biochemical, fluorescence polarization, FP-Rh probe, HTS, primary screen (AID 1515);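 further: plate controls were DMSO wells with RBBP9 for no effect and wells lacking RBBP9 protein for full effect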
# Conditions: recombinant RBBP9, FP-Rh probe fluorescence polarization; at 7.94 µM; active compounds read high
row,SMILES,inhibition
1,N#Cc1ccc(C(=O)NCC2(N3CCCCC3)CCCCC2)cc1,inactive: -2.41%
2,c1ccc(CN2CCC(Nc3ccccc3)CC2)cc1,inactive: -6.1%
3,COc1ccc(C(=O)NCC2(N3CCOCC3)CCCCC2)cc1OC,inactive: 0.73%
4,N/C(=N\O)c1c(N)no[n+]1[O-],inactive: -0.76%
5,O=C(OC1CN2CCC1CC2)C1c2ccccc2C=Cc2ccccc21 (centres undefined),inactive: -14.4%
6,CCOc1ncccc1C(=O)NCC1(N2CCOCC2)CCCCC1,inactive: -8.28%
7,CC(C)(C)OC(=O)N1CCC(Nc2ccccc2)CC1,inactive: -2.33%
8,COc1cc(OC)cc(C(=O)NCC2(N3CCOCC3)CCCCC2)c1,inactive: -9.02%
9,CCC(CO)(C(=O)OC1CN2CCC1CC2)c1ccccc1 (centres undefined),inactive: -2.6%
10,CCCOc1ccc(C)cc1CN(CCCl)CCCl,inactive: -0.3%
11,CCN1CCC(Nc2cccc(F)c2)CC1,inactive: 0.74%
12,CN(C)c1ccc(C(=O)NCC2(N3CCCCC3)CCCCC2)cc1,inactive: -3.87%
13,CCOc1ccc(C)cc1CN(CCCl)CCCl,inactive: 8.29%
14,COc1ccc(NC2CCN(CCc3ccccc3)CC2)c(OC)c1,inactive: -4.84%
15,Cc1ccc(OCC(C)C)c(CN(CCCl)CCCl)c1,inactive: 2.9%
16,COc1ccc(C(=O)NCC2(N3CCCCC3)CCCCC2)c(OC)c1OC,inactive: 5.96%
17,O=C(NCC1(N2CCOCC2)CCCCC1)c1cc2ccccc2o1,inactive: -3.37%
18,O=C(OC1CN2CCC1CC2)C1c2ccccc2Oc2ccccc21 (centres undefined),inactive: 2.38%
19,N#CC1(Nc2ccccc2)CCN(Cc2ccccc2)CC1,inactive: -4%
20,CCOC(=O)N1CCC(Nc2ccc(OC)cc2)CC1,inactive: -2.64%
21,CC(C)c1ccc(NC2CCN(C(=O)OC(C)(C)C)CC2)cc1,inactive: -1.03%
22,CN(C)c1cccc(C(=O)NCC2(N3CCCCC3)CCCCC2)c1,inactive: 3.81%
23,COc1ccc(CN(CCCl)CCCl)cc1Cl,inactive: 8.18%
24,CN1CCC(Nc2cccc(F)c2)CC1,inactive: 1.9%
25,N#CC1(Nc2ccccc2)CCN(CCc2ccccc2)CC1,inactive: -7.01%
26,O=C(NCC1(N2CCCCC2)CCCCC1)c1cccc([N+](=O)[O-])c1,inactive: -4.67%
27,O=C(NCC1(N2CCOCC2)CCCCC1)c1cc(=O)[nH]c2ccccc12,inactive: -0.73%
28,COc1ccc(NC2CCN(C(=O)OC(C)(C)C)CC2)cc1,inactive: 12.9%
29,CN1CCN(CCOC(=O)C(O)(c2ccccc2)c2ccccc2)CC1,inactive: 0.9%
